ChEMBL document CHEMBL1138325, “Design, synthesis, in vitro, and in vivo characterization of phenylpiperazines and pyridinylpiperazines as potent and selective antagonists of the melanocortin-4 receptor” (J Med Chem, 2007)

Organism: Homo sapiens
Assay: Selectivity for human MC4R over human MC5R

- Selectivity ratio: 6
SMILES: COc1cc(Cl)ccc1CC(C)C(=O)N1CCN(c2ccc(C(F)(F)F)cc2[C@@H](N)CC(C)C)CC1 (stereo partly specified)
